System: A2780 cells
Test: In-vitro cell proliferation assay (SRB), A2780 cells;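 further: viable cell number read as SRB absorbance, background from media-only wells subtracted, IC50 interpolated from percent inhibition at two bracketing compound concentrations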
Format: cell-based
Conditions: read-out: A2780 IC50, 72 hours

O=C(NCc1cccnc1)Nc1ccc(S(=O)(=O)c2cccc(C(F)(F)F)c2)cc1
IC50: 247 nM
